Laboratory results taken from patent US7279172B2, “Treatment of autoimmune conditions with copolymer 1 and related copolymers” (priority 1998, dated 2007).

B1: GPBP: guinea pig basic protein (protein, UniProt P25188 1-167, looked up)
Myelin basic protein: ASQKRPSQRHGSKYLATASTMDHARHGFLPRHRDTGILDSIGRFFGSDRAAPKRGSGKDSHHAARTTHYGSLPQKSQRSQDENPVVHFFKNIVTPRTPPPSQGKGRGLSLSRFSWGAEGQKPGFGYGGRADYKSKGFKGAHDAQGTLSKIFKLGGRDSRSGSPMARR

How the values were obtained:
[1] = tested on: DR1-restricted 3.19 and 19.3 T cell hybridomas; assay: Inhibition of IL-2 production by DR1-restricted CII-specific T cell hybridomas; conditions: CII 261-273 40 μg/ml, L57.23 APC, IL-2 read by CTL-L proliferation
[2] = tested on: experimental allergic encephalomyelitis (EAE); assay: EAE suppression by oral administration; conditions: Lewis rats fed 5 mg/kg at 2-3 day intervals before EAE induction; for Incidence / Incidence (%): cumulative of 3–5 experiments

Row | Molecule | inhibition of DR1-restricted T cell activation by CII collagen peptide (in words) [1] | Mean Onset [2] [days] | Incidence [2] | Incidence (%) [2] [%]
1 | poly[L-Tyr^0.136, L-Glu^0.21, L-Ala^0.648] [SD-1690-TGA] | less efficiently | – | – | –
2 | poly[L-Tyr^0.162, L-Glu^0.259, L-Lys^0.579] [SD-1697-GTL] | potent inhibitors | – | – | –
3 | poly[L-Tyr^0.102, L-Ala^0.542, L-Lys^0.353] [SD-1691-TAL] | most potent inhibitor | – | – | –
4 | Copolymer 1 [reference compound] | potent inhibitors | 12.6 | 13/28 | 46
5 | B1 | – | 11.4 | 10/17 | 59
